Patent US20240398793A1, “Methods of Treating Lymphedema” (Celltaxis, LLC, priority 2021, published 2024)

Chains of the proteins cited; added tags and fusions are not shown. Lines headed by an entry give the natural chain unless they say otherwise; changes in a name come on top.
UniProt P09960: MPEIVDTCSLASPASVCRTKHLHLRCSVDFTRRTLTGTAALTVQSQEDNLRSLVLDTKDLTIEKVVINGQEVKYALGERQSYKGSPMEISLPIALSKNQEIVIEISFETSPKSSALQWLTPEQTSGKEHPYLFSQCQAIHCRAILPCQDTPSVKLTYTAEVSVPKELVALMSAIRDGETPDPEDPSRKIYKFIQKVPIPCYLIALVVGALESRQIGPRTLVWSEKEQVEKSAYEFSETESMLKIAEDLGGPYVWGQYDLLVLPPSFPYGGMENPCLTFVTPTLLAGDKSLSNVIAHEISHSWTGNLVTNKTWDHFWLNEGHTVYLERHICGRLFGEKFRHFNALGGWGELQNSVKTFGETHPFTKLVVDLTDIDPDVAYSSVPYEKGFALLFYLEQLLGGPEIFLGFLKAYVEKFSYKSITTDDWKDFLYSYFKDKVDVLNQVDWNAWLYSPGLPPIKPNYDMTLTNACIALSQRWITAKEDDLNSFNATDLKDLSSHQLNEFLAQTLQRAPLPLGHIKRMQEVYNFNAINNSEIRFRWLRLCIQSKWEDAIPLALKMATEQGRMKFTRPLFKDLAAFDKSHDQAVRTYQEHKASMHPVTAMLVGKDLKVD

Tests used:
CYP3A4/5 = experiment: Clinical drug-drug interaction study, CYP3A4/5 induction; type: in vivo, human; conditions: steady state exposures
LTA4H epoxide hydrolase = LTA4H epoxide hydrolase (Homo sapiens (Human), UniProt P09960); conditions: Bhatt et al. (2017); cited from earlier work
other metalloenzymes = conditions: Bhatt et al. (2017); cited from earlier work

O=C(O)c1ccc(CN2C[C@@H]3C[C@H]2CN3Cc2ccc(Oc3ccc(-c4ncco4)cc3)cc2)cc1 [Acebilustat, 4-{[(1S,4S)-5-({4-[4-oxazol-2-yl-phenoxy]phenyl}methyl)-2,5-diazabicyclo[2.2.1]heptan-2-yl]methyl}benzoic acid]
induction of CYP3A4/5 (CYP3A4/5): did not induce
functional selectivity, epoxide hydrolase versus aminopeptidase activity (LTA4H epoxide hydrolase): 2 fold
selectivity for LTA4H versus other metalloenzymes (other metalloenzymes): highly selective
